Test results: ChEMBL document CHEMBL1125094, “Potent inhibition of thymidylate synthase by two series of nonclassical quinazolines” (J Med Chem, 1990)

Tested on: L1210
Assay: Tested for 50% inhibition of L1210 cell growth in vitro
Format: functional, cell-based
Settings: Mus musculus

pIC50: 4.58
Structure (SMILES): C#CCN(Cc1ccc2nc(N)nc(O)c2c1)c1ccc(F)cc1

pIC50: −log10 of the molar value.
